In patent US20220401452A1, “USE OF INHIBITORS OF ENHANCER OF ZESTE HOMOLOG 2” (The Board Of Regents of The University of Texas System, priority 2019, published 2022):

Tested on: CWR22Rv1 xenografts
Experiment: Test of EZH2 inhibitors in CWR22Rv1 xenograft mouse model
Format: in vivo, castrated nude mice
Protocol: FIG. 1F is a growth curve of xenograft tumors in castrated nude mice injected with CWR22Rv1 cells receiving vehicle (Veh) or GSK126, at the indicated doses.
Test of EZH2 Inhibitors in Xenograft Mouse Model. Male nude mice (Taconic) were castrated after 3 days of accommodation. CWR22Rv1 xenografts were established in the flanks of mice by injecting ˜2 million cells in 50% Matrigel (BD Biosciences). […] Tumors were measured 3 times every week and harvested after 3 weeks. Frozen samples were subjected to RT-qPCR and immunoblotting to study the expression of selected genes. All animal protocols were approved by the Beth Israel Deaconess Institutional Animal Care and Use Committee, and the experiments were performed in accordance with institutional and national guidelines.

CCN(c1cc(-c2ccc(CN3CCOCC3)cc2)cc(C(=O)NCc2c(C)cc(C)[nH]c2=O)c1C)C1CCOCC1 [EPZ-6438]
xenograft tumor growth (CWR22Rv1 subcutaneous xenografts, castrated mice, daily injection, 21 days of treatment): significantly retarded tumor growth | mRNA and protein levels of EZH2-activated genes in xenograft tumor tissues (CWR22Rv1 xenografts): consistent decrease
